In patent US8575375B2, “Androstane and pregnane steroids with potent allosteric GABA receptor chloride ionophore modulating properties” (Research Triangle Institute, priority 2007, dated 2013):

Columns and labels:
[1] = biological target: GABAA receptor; test: [35S]TBPS binding assay in rat brain cerebral cortex homogenates; details: rat cortical membranes, 6.25 μM GABA, 2 nM [35S]TBPS; mean±SD
Procedure: Tissue preparation. Rat brain cerebral cortex homogenates and the binding assays were conducted essentially as described (Carter et al., 1997). Briefly, adult male Sprague-Dawley rats (Charles River Laboratories, Raleigh, N.C.) were killed by excess CO2 asphyxiation, decapitated, and their brain rapidly removed and frozen on dry ice before being stored −76° C. The frozen cortices were placed in 10 volumes of an ice-cold 0.32 M sucrose solution and homogenized with a Teflon-glass homogenizer. The homogenate was centrifuged at 1500×g (10 min at 4° C.). The supernatant was retained and centrifuged at 10,000×g (20 min at 4° C.), yielding the P2 pellet. […]
[^35S]TBPS binding assays. […] Nonspecific binding was determined in the presence of 200 μM picrotoxin. […] The radioactivity remaining on the filter was determined in a TopCount 12-detector scintillation counter (Packard Instruments, Meriden, Conn.) using 20 μl of MicroScint20 (Packard Instruments) per well and standard liquid scintillation counting techniques.
The Emax values are for pregnanolone and the test compounds are presented as the percentage of Emax determined for allopregnanolone. The average enhancement of [^3H]flunitrazepam measured in the presence of allopregnanolone was approximately 60%. […]

[2] = test system: GABAA receptor; test: [3H]Flunitrazepam binding assay (enhancement) in rat brain cerebral cortex homogenates
Procedure: Tissue preparation. Rat brain cerebral cortex homogenates and the binding assays were conducted essentially as described (Carter et al., 1997). Briefly, adult male Sprague-Dawley rats (Charles River Laboratories, Raleigh, N.C.) were killed by excess CO2 asphyxiation, decapitated, and their brain rapidly removed and frozen on dry ice before being stored −76° C. The frozen cortices were placed in 10 volumes of an ice-cold 0.32 M sucrose solution and homogenized with a Teflon-glass homogenizer. The homogenate was centrifuged at 1500×g (10 min at 4° C.). The supernatant was retained and centrifuged at 10,000×g (20 min at 4° C.), yielding the P2 pellet. The P2 pellet was resuspended in an equal volume of a 50 mM Na+/K+ phosphate buffer containing 200 mM NaCl (pH 7.4) and centrifuged at 10,000×g (10 min at 4° C.). The pellet was washed twice more, resuspended in 1/10 volume of buffer and stored at −76° C. until the time of assay.
[^3H]Flunitrazepam binding assay. This assay was conducted as described for the [^35S]TBPS assay except that the assays contained 20 μg tissue homogenate, 1.0 μM GABA and 1.0 nM [^3H]flunitrazepam (74.1-85 Ci/mmol). Clonazepam (1.0 μM) was used to determine nonspecific binding.
The Emax values are for pregnanolone and the test compounds are presented as the percentage of Emax determined for allopregnanolone. The average enhancement of [^3H]flunitrazepam measured in the presence of allopregnanolone was approximately 60%. In cases where limited inhibition of [^35S]TBPS or enhancement of [^3H]flunitrazepam occurred at the top concentration of 10,000 nM, the IC50 or EC50 values are given as >10,000 nM. The data for the active compounds are reported as the mean±SD from at least three independent experiments.

For `CC(=O)[C@H]1CC[C@H]2[C@@H]3CC[C@H]4C[C@H](O)CC[C@]4(C)[C@H]3CC[C@]12C` [Allopregnanolone, 3α-hydroxy-5α-pregnane-20-one, reference compound], the IC50 [1] was 12.6 ± 1.7 nM, the “average enhancement of [3H]flunitrazepam” value ([2]; in the presence of allopregnanolone) was “approximately 60%” and the “[3H]Flunitrazepam Emax” value ([2]; percentage of Emax determined for allopregnanolone) was 100%. It also gave an EC50 ([2]; rat cortical membranes, 1.0 μM GABA, 1.0 nM [3H]flunitrazepam, mean±SD) of 26 ± 9.9 nM.
